## scFv variants of Ab-14 (heavy chain) against a SARS-CoV-2 spike peptide

All variants were tested on one target, the spike HR2 peptide PDVDLGDISGINAS (SARS-CoV-2).

Each scFv is VH, the linker GGGGSGGGGSGGGGS, VL, as in the parent Ab-14, and differs from it in the CDRs of the heavy chain only.
VH: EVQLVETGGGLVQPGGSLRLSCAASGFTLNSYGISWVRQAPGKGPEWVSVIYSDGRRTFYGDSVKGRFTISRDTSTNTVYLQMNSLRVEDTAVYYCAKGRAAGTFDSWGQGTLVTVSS
VL: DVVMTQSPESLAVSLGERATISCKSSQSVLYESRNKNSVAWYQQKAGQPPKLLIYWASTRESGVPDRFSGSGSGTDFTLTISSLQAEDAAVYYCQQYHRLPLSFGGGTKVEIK

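The starting antibody came from a phage panning campaign against this peptide. In library AAYL49, one, two or three CDR residues were substituted; doubles and triples were drawn at random. In AlphaSeq, yeast of one mating type display the scFv and yeast of the other type display the target. Binding brings cells together so that they mate, and sequencing counts the barcode pairs among the diploids. A regression on co-assayed BCL2-family reference pairs converts the normalised counts of each replicate to an apparent Kd. The assay was run in three technical replicates.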

Variants are written as CDR1, CDR2 and CDR3 of the heavy chain (limits as in the source). Parent: GFTLNSYGIS, VIYSDGRRTFYGDSVK, GRAAGTFDS. Affinities are written as log10 Kd with Kd in nM; a lower number is a better binder. Averages over replicates are reported, and they cover detected replicates only. A pair that was not seen in that replicate is written "n.d."; this usually means weak binding, but a binder can also be missed.

| # | CDR-H1 | CDR-H2 | CDR-H3 | log10 Kd, replicates | mean log10 Kd (nM) | empty controls |
|---|---|---|---|---|---|---|
| 1 | GFTLNSYVIS | VIYSDGRITFYGDSVK | GRAAGTFDF | n.d. / n.d. / n.d. | n.d. | 2/9 (3.93) |
| 2 | GFTLHSYGSS | VIYSDGRNTFYGDSVK | GRAAGTFDS | n.d. / n.d. / n.d. | n.d. | 1/9 (3.43) |
| 3 | GFTLNSYKIP | VIYSDGRRGFYGDSVK | GRAAGTFDS | n.d. / n.d. / n.d. | n.d. | 0/9 |
| 4 | GFPLNSYGIS | VIYSRGRRTFYGDSVK | GRAEGTFDS | 3.33 / n.d. / 5.94 | 4.63 | 3/9 (5.02) |
| 5 | GFTLNSYGIS | VRYSDGRRTFKGDSVK | GVAAGTFDS | n.d. / n.d. / n.d. | n.d. | 1/9 (3.93) |
| 6 | GGTLNSYSIS | VIYSDGRRTFYGDSVK | GRAAGLFDS | n.d. / n.d. / n.d. | n.d. | 0/9 |
| 7 | QFTLDSYGIS | VIYSDGRRTFHGDSVK | GRAAGTFDS | n.d. / n.d. / n.d. | n.d. | 0/9 |
| 8 | GLFLNSYGIS | VIYSDGRNTFYGDSVK | GRAAGTFDS | n.d. / n.d. / n.d. | n.d. | 3/9 (4.54) |
| 9 | GFTLNSYGIS | VWYSDGRGTFYGDSVK | GRAAGTFDS | n.d. / n.d. / n.d. | n.d. | 1/9 (3.83) |
| 10 | GFTLNSYGIS | VIYSDGRRTFYGWSKK | GRAVGTFDS | n.d. / 3.45 / n.d. | 3.45 | 1/9 (3.28) |
| 11 | GFTLNSYGIS | VIYSDGRRTRYGSSGK | GRAAGTFDS | n.d. / 4.50 / 4.87 | 4.69 | 3/9 (4.15) |
| 12 | GFTLNGYGIS | VIYSDGRRTFYGDSNK | LRAAGTFDS | n.d. / 3.99 / 3.99 | 3.99 | 2/9 (4.28) |
| 13 | GFTLNEYGIS | VIYSDGRRTFYGDSVK | GRAAGTFDS | 1.53 / 1.49 / 1.59 | 1.54 | 5/9 (4.42) |
| 14 | GFTLNSYGWS | VIYSDGRRTFYGFSVK | GRAAGTFDS | n.d. / n.d. / n.d. | n.d. | 1/9 (3.82) |
| 15 | GFMLNSYGIS | VIYSDGRMTFYGDSVR | GRAAGTFDS | n.d. / n.d. / n.d. | n.d. | 0/9 |
| 16 | GFTLNSYGRH | VILSDGRRTFYGDSVK | GRAAGTFDS | n.d. / n.d. / n.d. | n.d. | 2/9 (4.50) |
| 17 | GFTLNTYGIS | SIQSDGRRTFYGDSVK | GRAAGTFDS | 4.78 / 5.80 / 4.71 | 5.10 | 6/9 (4.39) |
| 18 | FFTLNSGGIS | WIYSDGRRTFYGDSVK | GRAAGTFDS | 4.56 / n.d. / n.d. | 4.56 | 4/9 (3.81) |
| 19 | GFTLNSYGIS | VIYSMGRRTFYGDSVK | GRRAGTQDS | 3.75 / n.d. / n.d. | 3.75 | 2/9 (4.79) |
| 20 | GFTLNSYGIS | VIYSEGSRTFYGISVK | GRAAGTFDS | 5.28 / n.d. / 4.31 | 4.79 | 2/9 (5.04) |
| 21 | GFTLNSYGIS | VIYSDTRRTFYGWSVK | GRAAGTFDK | n.d. / n.d. / n.d. | n.d. | 0/9 |
| 22 | GFTLNSYGIS | VIYSTGRRTFYGDPVK | GRAAGTRDS | 3.13 / 3.41 / n.d. | 3.27 | 3/9 (3.61) |
| 23 | GFTLNSYGIS | VIYADGRRTFYGDSVK | GRAAGTFDM | 0.00 / 0.37 / 0.13 | 0.17 | 0/9 |
| 24 | GNTLNSYGIS | VIYSDGRRTTYGDWVK | GRAAGTFDS | 4.03 / 3.96 / n.d. | 3.99 | 4/9 (4.39) |
| 25 | GFPLNSYGIS | VIYDDGRPTFYGDSVK | GRAAGTFDS | n.d. / 2.76 / n.d. | 2.76 | 1/9 (2.99) |
| 26 | GFTLNSYGTS | VHYSDGRRTFYGDSVK | GRAAGLFDS | n.d. / 5.05 / n.d. | 5.05 | 2/9 (3.74) |
| 27 | GFTLNSYGIS | VIYSHGRRTFGGDSVK | GRAAGTTDS | 3.77 / 5.08 / n.d. | 4.43 | 7/9 (4.36) |
| 28 | GFTLNSYGIS | VIYSDGRRTFYGDTNK | GRLAGTFDS | 3.56 / 2.61 / 3.45 | 3.21 | 3/9 (4.46) |
| 29 | GFTLNSYGIS | GIYSDGRRTFYGDSVK | GDAAGTFDS | n.d. / n.d. / n.d. | n.d. | 0/9 |
| 30 | PFTLNVYGIS | AIYSDGRRTFYGDSVK | GRAAGTFDS | n.d. / n.d. / n.d. | n.d. | 0/9 |
| 31 | GFTLNSYGIS | VIYSDGRRTFYKDSVG | GRAAGTFLS | n.d. / n.d. / n.d. | n.d. | 0/9 |
| 32 | GFTLNSYGIS | VIYSDARSTEYGDSVK | GRAAGTFDS | 3.80 / n.d. / 4.55 | 4.18 | 1/9 (3.05) |

The first 3 variants above that were never detected:

CDR-H1	CDR-H2	CDR-H3	log10 Kd, replicates	mean log10 Kd (nM)	empty controls
GFTLNSYVIS	VIYSDGRITFYGDSVK	GRAAGTFDF	n.d. / n.d. / n.d.	n.d.	2/9 (3.93)
GFTLHSYGSS	VIYSDGRNTFYGDSVK	GRAAGTFDS	n.d. / n.d. / n.d.	n.d.	1/9 (3.43)
GFTLNSYKIP	VIYSDGRRGFYGDSVK	GRAAGTFDS	n.d. / n.d. / n.d.	n.d.	0/9

In this assay the parent's reference entry averaged 0.65; its copy inside this library read 4.11 (one replicate of three). As a blank, each scFv also met three strains without target: over library AAYL49, 15% of these pairings were detected, typically at 4.06 and seldom below 2.83. For each scFv, signals with the empty controls are counted beside the result, with their mean in brackets.

The measurements come from Engelhart et al. 2022 (doi:10.1038/s41597-022-01779-4) through the FLAb antibody collection.